The source of these data is patent US7879844B2, “Heterocyclic janus kinase 3 inhibitors” (Astellas Pharma Inc., priority 2005, dated 2011).

Amino acid sequences for entries named in this document (tags omitted). Residues count along the entry.
UniProt P52333, 796-1124: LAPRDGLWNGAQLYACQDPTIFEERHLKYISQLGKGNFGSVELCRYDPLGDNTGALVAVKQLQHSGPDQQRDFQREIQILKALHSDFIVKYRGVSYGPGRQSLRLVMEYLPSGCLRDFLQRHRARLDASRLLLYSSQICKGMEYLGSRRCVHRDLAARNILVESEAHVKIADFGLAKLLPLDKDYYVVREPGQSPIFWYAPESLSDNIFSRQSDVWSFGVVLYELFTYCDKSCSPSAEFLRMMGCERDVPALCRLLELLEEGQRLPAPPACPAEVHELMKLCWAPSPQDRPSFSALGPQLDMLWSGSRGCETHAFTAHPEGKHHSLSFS

As a reminder, the IC50 is the concentration at which inhibition is half-maximal.

This assay concerns the target T1, human JAK3 kinase domain (Homo sapiens, UniProt P52333).
T1 construct: attached to the N-terminal of the 796-1124 (C-terminal) fragment of the human JAK3 protein; His-tag (N); purchased Carna Biosciences, Inc. (Kobe, Japan); host or cells: baculovirus expression system
Description: JAK3 inhibition test. The format is biochemical. Conditions: purified human JAK3 kinase domain; Biotin-Lyn-Substrate-2, 20 μM ATP in substrate solution; absorbance at 450 nm; read-out: IC50 (JAK3 inhibitory activity). As for the experimental part:
The JAK3 inhibition test was performed as described below according to the method of Okimoto et al.
Purified human JAK3 kinase domain was purchased from Carna Biosciences, Inc. (Kobe, Japan). This is obtained as described below. His-tag (41 kDa) was attached to the N-terminal of the 796-1124 (C-terminal) fragment of the human JAK3 protein (accession number #NM_000215), expressed using baculovirus expression system, and then purified using Ni-NTA affinity column chromatography.
As substrates, Biotin-Lyn-Substrate-2 (Biotin-XEQED EPEGF YFEWL EPE, X=∈-Acp (PEPTIDE INSTITUTE, INC., Osaka, Japan) and ATP were used. As an assay buffer, 15 mM Tris-HCl pH 7.5 containing 0.01% Tween 20 and 2 mM DTT was used. Normally, 20 μL of a substrate solution (an assay buffer containing 627 nM Biotin-Lyn-Substrate-2, 20 μM ATP, and 25 mM MgCl2), an assay buffer containing 10 μL of a substance to be tested, and 20 μL of an enzyme solution were added to a microplate, and stirred sufficiently.
After incubation at ambient temperature for one hour, the plate was washed with a cleaning buffer (50 mM Tris-HCl pH 7.5, 150 mM NaCl, 0.02% Tween 20), and a blocking buffer (a cleaning buffer containing 0.1% bovine serum albumin) was added to the plate. […] Enzyme activity was measured as absorbance at 450 nm. The efficacy of the test compound as a JAK3 inhibitor was expressed as an IC50 value.

With `NC(=O)c1cnc2[nH]ccc2c1N[C@@H]1[C@@H]2CC3C[C@H]1C[C@@](O)(C3)C2` [Example 121], the IC50 came to 1.1 nM.
